## Apparent affinities of Ab-14 variants for a coronavirus HR2 peptide

Binding partner: SARS-CoV-2 spike HR2 peptide, sequence PDVDLGDISGINAS.

Each scFv is VH, the linker GGGGSGGGGSGGGGS, VL, as in the parent Ab-14, and differs from it in the CDRs of the light chain only.
VH: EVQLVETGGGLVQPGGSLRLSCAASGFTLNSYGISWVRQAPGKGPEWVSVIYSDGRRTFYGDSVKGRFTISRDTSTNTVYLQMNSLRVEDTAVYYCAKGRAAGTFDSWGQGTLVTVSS
VL: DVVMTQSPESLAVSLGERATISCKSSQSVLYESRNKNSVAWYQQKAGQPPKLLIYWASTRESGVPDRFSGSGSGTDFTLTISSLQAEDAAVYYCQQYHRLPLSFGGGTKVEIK

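This is the validation round: designs drawn from the data on random variants, tested in the same kind of assay. Several design methods are mixed in this list. The assay is AlphaSeq: two haploid yeast populations carry antibody and antigen on their surface. The frequency of each diploid, read from paired DNA barcodes, reflects how well the two displayed proteins bind. Scores were corrected for input abundance and mapped to Kd with protein pairs of known affinity run in the same pool. Mating was done six times.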

Variants are written as CDR1, CDR2 and CDR3 of the light chain (limits as in the source). Parent: KSSQSVLYESRNKNSVA, WASTRES, QQYHRLPLS. Scale: log10 of Kd in nM, estimated from mating counts; low values are strong binders. Averages over replicates are reported, and they cover detected replicates only. Where no diploid with the target was found in any replicate, the entry reads "no signal": below detection, most likely a poor binder, though not proof of it. The parent sequence was in this pool as ten entries: three were never detected, three once, and four in most replicates, with averages from 0.34 to 2.37. The authors' rule: three or more of the six replicates give a measured affinity, fewer mean a poor binder. The range of this assay differs from that of the first round, and the authors advise against merging the two. Three control strains display no target. For all light chain designs, 4% of the pairings with them gave a signal, with a median of 2.64 and one signal in twenty below 1.59, so weak values seen in few replicates may be background.

mean log10 Kd (nM),detected,CDR-L1,CDR-L2,CDR-L3
2.73,6/6,ILYESVGTLSRNKNSVA,DNSTRES,QQYDRLPLS
2.03,6/6,KLTSTMRFEQKKKNNIA,EVSTRSK,QQYNRLPLA
0.04,6/6,KLSQSVLYESRNKNNVA,WASTRES,QQYHRLPLS
-0.40,6/6,KLSQSDLYESRNKNNVA,GASTRES,QQYHRLPLS
no signal,0/6,IVSQLMLWGMHVKNSIA,EAVTRIN,QQYDRLPLI
no signal,0/6,MIAEMVGYQSRNKNSVA,DNSTRED,QCYDRLPLS
0.87,6/6,MISQLMNMGQFAINSVA,QASIRNH,QQYDRLPLA
0.52,6/6,KISSMFYYESINKNSVA,QKSTREE,QDYHRLPLS
0.17,6/6,IISQSMLYQSATHNSIA,QTSTREE,QQYHHLPLS
0.09,6/6,KLSQSVLYESRNCNSVA,NASQRES,QQYHRLPLS
0.99,6/6,KLSQSVLYESRNKNSVA,WDSTRES,QQYHRLPLS
0.22,6/6,KLRQSTLYESRNPNSVA,RASTRES,QQYHRLPLS
0.36,6/6,KVSLSVLYESRNKNSVA,WASQRES,QQYHRLPLS
0.13,6/6,KVDFSWWYESRNKNSVA,NASTRER,QQYHRLPLS
1.71,6/6,MMSQVTGQGQRHRNNVA,QTSTREP,QQYDRLPLV
0.21,6/6,HLSAVVLYESRNKNSVA,NASTRES,QQYHRLPLS
0.51,6/6,KLEQSQLYESRNKNSVA,NASTRCS,QQYHRLPLS
0.91,6/6,KLMQVTGYESYVRNSVA,QMSTRAE,QDYHRLPLS
0.20,6/6,KLSQSVLYEMRVKNSVA,QAVTRES,QQYHRLPLS
0.96,6/6,MFSQLTYTGSRTRNAVA,QASTREN,QQYHHLPLA
2.33,6/6,KLRQSTVIESFNKNNVA,EMTTREY,QSYDRLPLS
no signal,0/6,KSAQSVLYESQNKNNVA,WASTRES,QQYHRLPCS
2.49,4/6,KSSQAVLYESRNKNNVA,WAVTRES,QQYHRLPLS
0.08,6/6,KLSQSVLYEDRVKNSVA,SASTRES,QQYHRLPLS
0.41,6/6,KSSISYLYESMNKNSVA,SGSTRES,QQYHRLPLS
-0.03,6/6,KLSQSVGYESRNKNSVA,AASTRES,QQYHRLPLS
0.72,6/6,KSSHSVLYESTNKNSVA,WASTRMS,QQYHRLPLS
1.25,6/6,HMSMLTLSGMYHRNSVA,QMTTREN,QQYDHLPLS
0.53,6/6,KSEFSVYYGERNKNSVA,QASTRES,QQYHRLPLS
0.18,6/6,KSGQGVLYESRNHNSVA,GASTRES,QQYHRLPLH
-0.08,6/6,KFSQSFLAESRNKNSVA,RASTRES,QQYHRLPLS
0.14,6/6,KIRVHNLMFYQNENSIA,GQSNRAE,QQYYHLPLT
0.40,6/6,KSSQSVLYESRNKNSVA,GASTRES,LQYHRLPLS
-0.21,6/6,KLSQSQLYLSRNMNAVA,NASQRLS,QQYHRLPLS
0.37,6/6,KLAMITGLEKVSGNNVA,EMETREK,QQYNRLPLS
0.88,6/6,KIYAATMLESTDKNSIA,DLTNRGN,QQYHRLPLS
0.88,6/6,SLHMMPPVGYALDANVA,NASQLFS,QQYFRLPLT
1.40,6/6,VSEQSVLYESSNKNSVA,GASGRES,QQYHRLPLS
1.73,6/6,KISQMVRVGATHGNSIA,EEATRAK,QQYHRLPLA
1.37,6/6,TISSSVNMTSHGRNSVA,QAEMRES,QQYDRLPLS
-0.42,6/6,NIRGMVNGKGTTTKNIA,DAEFRAG,QQYSRLPLS
0.41,6/6,KLSQEMEYESRNKNSVA,QASERES,QDYHRLPLS
0.02,6/6,KSLQSVLYESRDKNNVA,HASTRED,QQYHRLPLS
-0.35,6/6,KMSQSWLYESRNKNNVA,NASTRES,QQYHRLPLS
1.96,6/6,TIGQTLMYGKRNKNNVA,EVSERLN,QQYDRLPLI
0.82,6/6,KFSQSWLYESRNKNSVA,RASMRES,QQYHRLPFS
1.59,6/6,ASSQSVLYESRNKNSVA,GANTRES,QQYHRLPLS
-0.53,6/6,KLSQSFLYEERNKNSVA,NASTRES,QQYHRLPLS
0.61,6/6,KIGMTLNQLMHKKNNVA,DLVERET,QQYFRLPLS
0.08,6/6,KMTKAEQGIGSHQQNIA,DSNKITD,QQYYRLPLS
0.59,6/6,LLSQSSGYEQRNKNSVA,DASTRLS,QAYHRLPLS

Picked from the list: the 8 lowest averages where every replicate gave a value.

CDR-L1,CDR-L2,CDR-L3,mean log10 Kd (nM),detected
KLSQSFLYEERNKNSVA,NASTRES,QQYHRLPLS,-0.53,6/6
NIRGMVNGKGTTTKNIA,DAEFRAG,QQYSRLPLS,-0.42,6/6
KLSQSDLYESRNKNNVA,GASTRES,QQYHRLPLS,-0.40,6/6
KMSQSWLYESRNKNNVA,NASTRES,QQYHRLPLS,-0.35,6/6
KLSQSQLYLSRNMNAVA,NASQRLS,QQYHRLPLS,-0.21,6/6
KFSQSFLAESRNKNSVA,RASTRES,QQYHRLPLS,-0.08,6/6
KLSQSVGYESRNKNSVA,AASTRES,QQYHRLPLS,-0.03,6/6
KSLQSVLYESRDKNNVA,HASTRED,QQYHRLPLS,0.02,6/6

Values reported by Li et al. 2023, doi:10.1038/s41467-023-39022-2 (FLAb copy).